In this data set the test system is broilers. The following applies: drinking water.

As to sodium chlorite, under “broilers 35 days of age, free access, seven day period, sodium chlorite 0-1.2 %, citric acid 0-0.4 % by weight”, the “differences in mortality during the experiment” value is “No significant (P>0.05) differences”. In addition, the “response of daily and 7-day water consumption to graded levels in the water” value (broilers, seven days) was “Linear and quadratic responses”. Moreover, the “concentrations that negatively affected live performance and water intake” value (broilers, seven days, P<0.05) is reported as > 0.06%. Besides, the “concentrations that significantly lowered weight gain and feed consumption” value (broilers, seven days, percent by weight) was “above 0.12%”.

The values above are taken from patent US7887850B2, “Method for reducing pathogens in the gastrointestinal tract of poultry and other food animals” (Ecolab Inc., priority 2004, dated 2011).
